# Apparent affinities of Ab-14 variants for a coronavirus HR2 peptide

The target is the same throughout: PDVDLGDISGINAS, from the HR2 region of SARS-CoV-2 spike.

Parent: Ab-14, a human scFv built as VH, three GGGGS repeats, VL. Only the CDRs of the light chain vary.
VH: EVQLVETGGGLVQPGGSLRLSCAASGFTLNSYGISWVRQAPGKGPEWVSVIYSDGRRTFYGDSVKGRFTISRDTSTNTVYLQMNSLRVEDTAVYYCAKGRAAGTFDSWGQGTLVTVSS
VL: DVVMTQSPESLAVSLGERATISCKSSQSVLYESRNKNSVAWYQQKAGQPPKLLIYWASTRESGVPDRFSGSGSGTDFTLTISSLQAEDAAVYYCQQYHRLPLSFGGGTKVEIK

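The starting antibody came from a phage panning campaign against this peptide. Library AAYL50 holds single substitutions and randomly drawn double and triple substitutions in the CDRs. The assay is AlphaSeq: two haploid yeast populations carry antibody and antigen on their surface. Pairs that bind mate more often; barcode pairs of the diploids are counted by sequencing. Each replicate has its own calibration line, from reference interactions of the BCL2 family. Each pool was mated in three replicate cultures.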

Variants are written as CDR1, CDR2 and CDR3 of the light chain (limits as in the source). Parent: KSSQSVLYESRNKNSVA, WASTRES, QQYHRLPLS.
Every variant below is changed at E32 of the VL (sequential numbering).
Values are apparent Kd, the geometric mean of the replicates that gave a signal; lower means stronger binding.
"nd" marks a missing value. The strain was present, yet no cells mated with the target were sequenced in any replicate, which points to weak or no binding.
As a blank, each scFv also met three strains without target: over library AAYL50, 18% of these pairings were detected, typically at 15 µM and seldom below 970 nM. The control count says in how many pairings with the empty strains this scFv gave a signal.
In this assay the parent's reference entry averaged 4.4 nM; its copy inside this library read 48 nM.

KSSQSVLYAIRNKNSVA, WASTRES, QQYHREPLS: 26 µM (1 of 3 replicates; controls 2 of 9).
KSSQSVLYLSRNENSVA, WASTRES, QQYHRLPMS: 2.2 µM (3 of 3 replicates; controls 1 of 9).
KSSQSVLHLSRNKNSVA, WASTRES, QQYHRAPLS: nd (0 of 3 replicates; controls 0 of 9).
KSSQSVLYRSRNKNSVA, WASTREE, QQYHRLPLS: 28 nM (3 of 3 replicates; controls 2 of 9).
KSSQSVLYPSRNKNSVA, WASTRES, QQYHCLYLS: 6.4 nM (3 of 3 replicates; controls 2 of 9).
KSSQSVLYQSRNKNSVA, WASTMES, QDYHRLPLS: 300 nM (1 of 3 replicates; controls 0 of 9).
DSSQSVLYWSRNKNDVA, WASTRES, QQYHRLPLS: 340 nM (1 of 3 replicates; controls 0 of 9).
KSSQSVLYMSRNKNSVA, WASTRES, QQYHRLPLS: 60 nM (3 of 3 replicates; controls 0 of 9).
KSSQSVLYYSRNKNSVA, WASTRTS, QFYHRLPLS: 1.1 µM (2 of 3 replicates; controls 1 of 9).
KSSQSVLYLSKNKNSVA, WASTRES, QQYHREPLS: 5.5 µM (2 of 3 replicates; controls 1 of 9).
KSSQSVLYTSRNKNSVA, WASTRES, QQYHRLPLS: 73 nM (3 of 3 replicates; controls 2 of 9).
WSSQSVLYQSRNKNSVA, WASTRES, QQYHREPLS: 220 nM (3 of 3 replicates; controls 0 of 9).
KSSQSVLYCSRNKNAVA, WASTRES, QQYHRLPLS: nd (0 of 3 replicates; controls 0 of 9).
KSSQSVLYPSRNKNSVA, RASTRES, VQYHRLPLS: nd (0 of 3 replicates; controls 0 of 9).
KSSQSVLYVSRNKNSVA, WASTREV, QQYHRLPLS: 780 nM (3 of 3 replicates; controls 3 of 9).
KSSQSVLYISRNKRSCA, WASTRES, QQYHRLPLS: nd (0 of 3 replicates; controls 1 of 9).
KSFQSVLYDSRNKNSVA, WASTRES, QQYHRLPCS: 8.8 nM (3 of 3 replicates; controls 2 of 9).
KSSQSVLYFSRNKNSAA, WASTRNS, QQYHRLPLS: nd (0 of 3 replicates; controls 0 of 9).
KSSQSWLYSSRNKNSVA, WASTRGS, QQYHRLPLS: 27 nM (3 of 3 replicates; controls 1 of 9).
KSSQSELYYSRNKNSVA, WASTRES, MQYHRLPLS: 17 nM (3 of 3 replicates; controls 5 of 9).
KTSQSVLYPSRNKNSVA, WASTRES, QQYHRLPYS: 82 nM (3 of 3 replicates; controls 5 of 9).
KSSQSVLYKSRCKNSVA, WASTRES, QQRHRLPLS: 46 µM (1 of 3 replicates; controls 1 of 9).
KSSQSVLYYSRNKNSVA, WASTNES, QQYHRLPLS: 130 µM (3 of 3 replicates; controls 5 of 9).
KSSQSVLYVSCNKNSVA, WASTREA, QQYHRLPLS: 15 µM (3 of 3 replicates; controls 6 of 9).
KSSQSVLYISRNKNSVA, WASTRES, QQYHALPLS: 550 nM (3 of 3 replicates; controls 3 of 9).
KSSQSTLYQSRNKNSVA, WASTRES, GQYHRLPLS: 38 µM (3 of 3 replicates; controls 2 of 9).
KSSQSVLYVSRNKNSVA, WASTKES, QQYHRLPLS: 8.6 µM (2 of 3 replicates; controls 0 of 9).
KSSQSVLYVSRNKNSVA, WASFRES, EQYHRLPLS: 8.5 µM (1 of 3 replicates; controls 3 of 9).
KSSQSVLYISRNKNSVA, WASARES, QQYHREPLS: nd (0 of 3 replicates; controls 1 of 9).
WSSQSVLYCSRNKNSVA, WASTRES, QQYHRLNLS: nd (0 of 3 replicates; controls 0 of 9).
KSSQSVAYDSRNKNSVA, WAVTRES, QQYHRLPLS: 8.1 nM (3 of 3 replicates; controls 1 of 9).
KSSQSVLYFSRNKNSVA, WASTFES, QQYHRKPLS: 6.8 µM (1 of 3 replicates; controls 3 of 9).
KSSQSVLYVSRGKNSVY, WASTRES, QQYHRLPLS: nd (0 of 3 replicates; controls 3 of 9).
KSSQSVLYKSRNKNSVA, WASTRES, QQYHRLPLS: 670 nM (3 of 3 replicates; controls 2 of 9).
KSSQSVLYCSRNANSVA, WASTRES, QQYHRLPLI: nd (0 of 3 replicates; controls 0 of 9).
KSSQSVLYLSRNKQSVA, WASTRES, QQYWRLPLS: 35 nM (3 of 3 replicates; controls 1 of 9).
KSSQSVLYNSRNKNQVA, EASTRES, QQYHRLPLS: 8.3 nM (3 of 3 replicates; controls 5 of 9).
KSSQSILYTSRNKNVVA, WASTRES, QQYHRLPLS: 510 µM (3 of 3 replicates; controls 2 of 9).
KSSQSVLYRSRNKNSVA, WASTRES, QQWLRLPLS: 150 nM (3 of 3 replicates; controls 0 of 9).
KSSQSVLYPSRNKNSVA, WASTRES, FQYHRLPLN: nd (0 of 3 replicates; controls 0 of 9).

The first 5 variants above that were never detected:

{"CDR-L1": "KSSQSVLHLSRNKNSVA", "CDR-L2": "WASTRES", "CDR-L3": "QQYHRAPLS", "Kd (apparent)": "nd", "seen in": "0 of 3", "control signals": "0 of 9"}
{"CDR-L1": "KSSQSVLYCSRNKNAVA", "CDR-L2": "WASTRES", "CDR-L3": "QQYHRLPLS", "Kd (apparent)": "nd", "seen in": "0 of 3", "control signals": "0 of 9"}
{"CDR-L1": "KSSQSVLYPSRNKNSVA", "CDR-L2": "RASTRES", "CDR-L3": "VQYHRLPLS", "Kd (apparent)": "nd", "seen in": "0 of 3", "control signals": "0 of 9"}
{"CDR-L1": "KSSQSVLYISRNKRSCA", "CDR-L2": "WASTRES", "CDR-L3": "QQYHRLPLS", "Kd (apparent)": "nd", "seen in": "0 of 3", "control signals": "1 of 9"}
{"CDR-L1": "KSSQSVLYFSRNKNSAA", "CDR-L2": "WASTRNS", "CDR-L3": "QQYHRLPLS", "Kd (apparent)": "nd", "seen in": "0 of 3", "control signals": "0 of 9"}

The measurements come from Engelhart et al. 2022 (doi:10.1038/s41597-022-01779-4) through the FLAb antibody collection.